Results on one compound are retold here after PMC11412900 (Molecular Psychiatry, 2024).

By UniProt entry, the sequences of proteins in these tests, tags left out.
UniProt P28223, whole entry: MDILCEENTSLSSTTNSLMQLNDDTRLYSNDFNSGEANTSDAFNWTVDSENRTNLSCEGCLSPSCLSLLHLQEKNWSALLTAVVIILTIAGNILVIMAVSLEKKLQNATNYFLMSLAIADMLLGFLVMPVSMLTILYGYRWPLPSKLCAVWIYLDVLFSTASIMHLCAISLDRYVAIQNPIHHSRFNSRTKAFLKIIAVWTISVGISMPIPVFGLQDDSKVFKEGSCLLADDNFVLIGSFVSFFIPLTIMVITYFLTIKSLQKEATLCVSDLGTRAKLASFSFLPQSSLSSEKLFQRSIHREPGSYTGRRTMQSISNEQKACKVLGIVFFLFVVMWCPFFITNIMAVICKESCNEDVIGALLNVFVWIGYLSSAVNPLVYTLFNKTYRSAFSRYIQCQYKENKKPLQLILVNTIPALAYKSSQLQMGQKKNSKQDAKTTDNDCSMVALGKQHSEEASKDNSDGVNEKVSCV

The test deals with T1, h5-HT2AR (Homo sapiens, UniProt P28223).
T1 construct: purchased Perkin Elmer, Inc. (Waltham, MA, USA)
Nature of the test: biochemical. The class given is binding. The method, then:
Binding assays were performed as described previously. Briefly, membrane preparations expressing h5-HT1AR, h5-HT2AR or hSERT (see Supplementary Material) were incubated with radiolabeled selective ligands 0.4 nM [^3H]8-OH-DPAT, 1 nM [^3H]ketanserin or 3 nM [^3H]imipramine, respectively. The drugs were diluted in the corresponding binding buffer and tested at increasing concentrations in duplicate. Binding reactions were performed in tubes containing the drug dilutions; 25 μl of the corresponding radioligand; and the membranes (10 μg and 5 μg/500 μL for 5-HT1AR and 5-HT2AR, respectively, and 15 μg/100 μL for hSERT), all diluted in binding buffer. […] Incubation was performed for 1 h at 27 °C for 5-HT1A/2AR and 22 °C for hSERT, according to the manufacturer’s protocol (Perkin Elmer, Inc., Waltham, MA, USA) and previous studies - saturation and kinetic experiments, respectively. The binding reactions were stopped by rapid filtration through GF/B glass microfiber filters pre-soaked with 0.5% polyethyleneimine and washing with ice-cold wash buffer. The filters were placed into vials and scintillation cocktail was added. The trapped radioactivity was quantified. Specific binding was defined as the difference between total binding (binding buffer alone) and non-specific binding. Experiments were conducted per duplicate for at least three independent experiments.

SMILES strings stand for the structures.

On to `COc1ccc2[nH]cc(CCN(C(C)C)C(C)C)c2c1` [5-MeO-DIPT, 5-methoxy-N,N-diisopropyltryptamine], for which the Ki (in general, a dissociation constant, usually derived from enzyme kinetics or from competition with a known ligand) is 399 ± 49 nM.
